# High-throughput results from PubChem.
# Rango-impB inh = Rango-importin beta binding inhibition; actives 0.031% (n = 340,000); Potency, µM (titrated, usually from 92.2 µM); Rango CFP/YFP FRET sensor + importin beta, 45 min; further: nearly all actives have a fitted effect of over 15% in size
#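 FRET biosensor (snurportin 1 IBB flanked by EYFP and cerulean), 50 nM, with compound 5 min, then 0.125 microM importin beta in PBS, 1 mM DTT, 0.02% Tween-20, 0.1% BSA. CFP/YFP ratio read after 45 min at room temperature; pre-read flags interference.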
# Rango dissoc inh = inhibition of RanGTP-driven Rango-importin beta dissociation; O95149+P62826; Potency, µM (top dose mostly 46.1 µM); AID 540253; actives 0.071% (n = 340,000); Biochemical FRET Rango-importin beta, RanGTP-induced dissociation; further: nearly all actives have a fitted effect of over 45% in size
#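 Quantitative HTS using a FRET biosensor: 0.1 uM Rango, 0.25 uM importin beta, 0.6 uM Ran, 2 mM GTP, 0.2 uM RCC1 final, PBS with DTT, Tween-20 and BSA. Post-read taken 45 min after Ran addition.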
# CCT chaperon mod = modulators of cytosolic chaperonin (CCT/TRiC) activity; purified chaperonin ATPase assay, HTRF ADP detection, 30 min; activity change, % (no concentration beside the values), hits read low; actives 0.3% (n = 360,000); in the data active means activity change below about -30%
#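 TRiC (40 or 20 nM final, by batch activity) in 30 mM Tris pH 7.4, 100 mM KCl, 5 mM MgCl2, 1 mM DTT was treated with compound at 76 uM single dose, then 10 uM ATP, 30 min at 37 °C. ADP was read by HTRF Transcreener.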
# MmCpn inh = M. maripaludis TRiC chaperonin inhibition; purified Mm-Cpn ATPase, ADP Transcreener TR-FRET; Potency, µM (doses to about 76.9 µM), usual class: inhibitors; actives 0.031% (n = 330,000); AID 504842; active means well fitted inhibition curve with a large enough effect; inconclusive means small, poorly fitted or top-dose-only effect; further: nearly all actives have a fitted effect of over 80% in size
#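 Quantitative HTS used 25 nM Mm-CPN and 10 uM ATP in magnesium/KCl Tris buffer, pH 7.4, with 1 mM DTT. Hydrolysis ran 30 min at 37°C; ADP was read by HTRF.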
# KCNH2 WT inh = blocks the wildtype human KCNH2 potassium channel; Q12809; U2OS, BacMam KCNH2, thallium flux FluxOr; hits give low values; activity change, % at 1.84 µM; actives 0.37% (n = 340,000); AID 720551;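 active means maximum activity change below -70%; inconclusive means maximum activity change between -70% and -50%; inactive means maximum activity change above -50%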
#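 U2OS cells transduced with wild-type KCNH2 virus are loaded with FluxOr dye for 45 min, and thallium flux is measured in kinetic reads before and after stimulation buffer. Rate constants are normalized to DMSO controls.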
# KCNH2 3.1 block = KCNH2 3.1 (human) potassium channel inhibition | activity change, % (tested at about 1.8 µM) | actives 0.95% (n = 340,000) | U2OS KCNH2 3.1, thallium flux FluxOr; hits give low values;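 active means maximum activity change below -70%; inconclusive means maximum activity change from -70% to -50%; inactive means maximum activity change above -50%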;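 further: thallium influx rate constant from kinetic fluorescence after stimulation buffer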
#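 Steps: virus added to U2OS suspension (4 h, RT, dark); medium with 10% FBS added, cells plated, 37 C overnight; FluxOr/Red40 loading buffer 45 min RT; stimulation buffer, 2 min kinetic read; rate constant normalized.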
# Numbers stand for hits; . = inactive; ? = inconclusive; / = no result given; ! = not confirmed by another sample. Rows were chosen to be rich in hits. Some 1.4% of all compounds tested hit in one or more screens of this group. Unless noted, the call rests on the fitted dose curve.
SMILES,Rango-impB inh,Rango dissoc inh,CCT chaperon mod,MmCpn inh,KCNH2 WT inh,KCNH2 3.1 block
O=C(NCc1ccccc1)C12CC3CC(CC(C3)C1)C2,.,.,.,.,.,.
COc1cc(C(=O)NC(=S)Nc2ccc(NC(=O)c3ccco3)cc2)cc(OC)c1OC,.,.,.,.,.,-82.9
CCCCCc1cc(=O)oc2c(C(CCN3CCCC(C)C3)c3ccc4c(c3)OCO4)c(OC)cc(OC)c12 (centres undefined),.,.,.,.,.,.
COc1cc(OC)c2c(-c3ccccc3)cc(=O)oc2c1C(CCN1CCOCC1)c1ccc2c(c1)OCO2 (centres undefined),.,.,.,.,.,.
CCCCCc1cc(=O)oc2c(C(CCN3CCCCC3)c3ccc4c(c3)OCO4)c(OC)cc(OC)c12 (centres undefined),.,.,.,.,-79.7,.
CCN(CC)CCC(c1ccc(N(C)C)cc1)c1c(OC)cc(OC)c2c(-c3ccccc3)cc(=O)oc12 (centres undefined),.,.,.,.,.,-112.3
COc1cc(OC)c2c(-c3ccccc3)cc(=O)oc2c1C(CCN1CCCC1)c1ccc2c(c1)OCO2 (centres undefined),.,.,.,.,-81.8,.
COc1cc(O)c(C(CCN2CCN(c3ccccc3)CC2)c2ccc3c(c2)OCO3)c(OC)c1 (centres undefined),.,.,.,.,?,-89.8
COc1cc(O)c(C(CCN2CCCC2)c2ccc3c(c2)OCO3)c(OC)c1 (centres undefined),.,.,.,.,/,/
COc1cc(OC)c2c(-c3ccccc3)cc(=O)oc2c1C(CCN1CCN(c2ccccc2)CC1)c1ccc(N(C)C)cc1 (centres undefined),.,.,.,.,/,/
COc1ccccc1NC(=O)NNC(=O)CCN1CCOCC1,.,.,.,.,.,.
CNC(=S)N/N=C/c1c2ccccc2c(Cl)c2ccccc12,?,?,.,.,.,.
Cc1cc(C)c(CN2CCC(n3nccc3NC(=O)C3CCOC3)CC2)cc1C (centres undefined),.,.,.,.,.,.
O=C(CCn1cccn1)Nc1ccc(-c2ccno2)cc1,.,.,.,.,.,.
COc1ccc(N2C(=O)C(CC(N)=O)N(NC(=O)c3cccc(OC)c3)C2=S)cc1 (centres undefined),.,.,.,.,.,.
O=C(Cn1nc(-c2ccc3c(c2)OCCO3)ccc1=O)Nc1cccc(NC(=O)c2ccccn2)c1,/,/,/,.,/,/
COc1cc(OC)c2c(C)cc(=O)oc2c1C(CCN1CCN(c2ccccc2)CC1)c1ccc2c(c1)OCO2 (centres undefined),.,.,.,.,-91.6,-102.8
COc1cc(OC)c2c(-c3ccccc3)cc(=O)oc2c1C(CC(=O)N1CCN(c2ccccc2)CC1)c1ccc2c(c1)OCO2 (centres undefined),/,/,/,.,/,/
CC(C)COc1cccc(C(=O)N(C)CC(=O)Nc2cccc3ccccc23)c1,.,.,.,.,.,.
CCCCN1CCc2c(c3ccccc3n2Cc2ccccc2)C1,.,.,.,.,?,-94.0
CN1CCc2c(c3ccccc3n2Cc2ccccc2)C1,.,.,.,.,.,-77.4!
CN1CCc2c(c3ccccc3n2C)C1,.,.,.,.,.,.
c1ccc(CN2CCc3[nH]c4ccccc4c3C2)cc1,.,.,.,/,.,.
O=C(O)C1CCCCC1C(=O)Nc1cc(C(F)(F)F)ccc1Cl (centres undefined),.,.,.,.,.,.
CCN(CC1CCCN(CCc2cccc(F)c2)C1)C(=O)c1cc2ccccc2o1 (centres undefined),.,.,.,.,.,-75.4
SMILES,Rango-impB inh,Rango dissoc inh,CCT chaperon mod,MmCpn inh,KCNH2 WT inh,KCNH2 3.1 block
CCN(CC1CCCN(CCc2cccc(F)c2)C1)C(=O)c1cc(C)oc1C (centres undefined),.,.,.,.,.,.
N#Cc1ccc(CN2CCN(CC(=O)NCCc3ccc(Cl)cc3Cl)CC2)cc1,.,.,.,.,-78.6,-80.2
O=C(Cn1cc(C(F)(F)F)ccc1=O)NCCc1ccc(Cl)cc1Cl,.,.,.,.,.,.
CN(C)CCC1c2ccc(Cl)cc2CCc2cccnc21 (centres undefined) (tested in a mixture with another compound),.,.,.,.,.,.
Cc1ccc2nc(Nc3ccc(C)c(Cl)c3)c3nncn3c2c1,.,.,.,.,.,.
Cc1ccc(Nc2nc3ccccc3n3cnnc23)cc1Cl,.,.,-49.7,.,.,.
Cc1cc(Cl)c(OCCCCNC(C)(C)C)c(Br)c1,/,/,/,.,/,/
CC1Sc2ccc(C(=O)NCc3cccc(C(F)(F)F)c3)cc2NC1=O (centres undefined),.,.,.,.,.,.
CCOc1ccc(C(=O)C(C)OC(=O)Cn2[nH]c(=O)c3ccccc3c2=O)cc1 (centres undefined),.,.,.,.,.,-73.2
Cc1ccc(-c2csc3nc(SCC(=O)N(C)C)n(Cc4ccccc4)c(=O)c23)cc1,.,.,.,.,.,-73.8
Cc1cc(C)n2nc(C(=O)N3CCCC(N4CCN(c5ccccc5C)CC4)C3)cc2n1 (centres undefined),.,.,.,.,.,.
CS(=O)(=O)N1Cc2ccccc2CC1C(=O)O (centres undefined),.,.,.,.,.,-95.0
Cn1nc(-c2ccc(Cl)cc2)c2cc(C(=O)N3CCCC3)sc21,.,.,.,.,-143.4,-209.2
Cc1noc(C)c1CSCC(=O)N1CCN(c2ccc([N+](=O)[O-])cc2)CC1,.,.,.,.,.,-72.7
Cc1noc(C)c1S(=O)(=O)N1CCN(c2ccc([N+](=O)[O-])cc2)CC1,.,.,.,.,.,-80.1
COc1ccc(-c2cc(C)no2)cc1S(=O)(=O)N1CCN(c2ccc([N+](=O)[O-])cc2)CC1,.,.,.,.,-77.6,-105.7
COc1ccc(/C=N/NC(=O)CNC(=O)c2ccc3c(c2)OCCO3)c(C(=O)O)c1OC,.,.,.,.,.,.
CCN1/C(=C\c2ccc3cc(C)ccc3[n+]2CC)Sc2cc(C)c(C)cc21,?,?,.,?,-126.4,.
CCN1/C(=C/c2ccc3cc(C)cc(C)c3[n+]2CC)Sc2cc(C)ccc21,?,?,.,.,.,.
CCN1/C(=C/c2ccc3cccc(C)c3[n+]2CC)Sc2ccccc21,51.7µM,.,.,.,.,.
CCSc1ccc2c(c1)N(CCCN1CCN(C)CC1)c1ccccc1S2,.,.,.,.,.,-73.4
